Data taken from patent EP1717234A1, “Phenoxypropylpiperidines and -pyrrolidines and their use as histamine H3-receptor ligands” (BIOPROJET, priority 2005, dated 2006).

Protein sequences, listed by entry. Tags and fused reporters are not part of them.
UniProt Q9Y5N1, whole entry: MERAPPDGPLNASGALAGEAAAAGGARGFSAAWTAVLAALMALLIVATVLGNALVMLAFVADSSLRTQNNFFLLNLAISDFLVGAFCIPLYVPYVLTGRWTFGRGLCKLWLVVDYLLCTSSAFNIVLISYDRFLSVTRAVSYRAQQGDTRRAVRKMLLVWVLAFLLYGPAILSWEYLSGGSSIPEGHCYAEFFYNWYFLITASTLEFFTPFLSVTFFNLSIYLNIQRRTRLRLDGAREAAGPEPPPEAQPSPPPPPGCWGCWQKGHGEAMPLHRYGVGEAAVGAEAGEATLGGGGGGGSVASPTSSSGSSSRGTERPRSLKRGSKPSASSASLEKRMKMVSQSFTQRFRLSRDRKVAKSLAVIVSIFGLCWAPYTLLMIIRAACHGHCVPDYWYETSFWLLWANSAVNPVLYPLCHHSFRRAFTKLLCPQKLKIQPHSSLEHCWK
UniProt P10635, whole entry: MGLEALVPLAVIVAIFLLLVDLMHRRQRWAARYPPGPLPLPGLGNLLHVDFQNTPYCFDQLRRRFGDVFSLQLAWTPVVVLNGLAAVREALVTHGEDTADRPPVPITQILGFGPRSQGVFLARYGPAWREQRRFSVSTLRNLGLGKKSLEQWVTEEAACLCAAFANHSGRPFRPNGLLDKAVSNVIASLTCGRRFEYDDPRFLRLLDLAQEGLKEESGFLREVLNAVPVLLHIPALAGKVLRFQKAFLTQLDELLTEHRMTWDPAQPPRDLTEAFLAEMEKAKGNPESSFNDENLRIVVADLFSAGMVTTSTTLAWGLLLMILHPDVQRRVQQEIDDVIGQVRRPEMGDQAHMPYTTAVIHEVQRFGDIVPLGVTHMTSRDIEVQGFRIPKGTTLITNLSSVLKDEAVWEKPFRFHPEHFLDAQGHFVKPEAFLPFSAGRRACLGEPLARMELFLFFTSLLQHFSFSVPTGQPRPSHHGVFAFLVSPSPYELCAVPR
UniProt P08684, whole entry: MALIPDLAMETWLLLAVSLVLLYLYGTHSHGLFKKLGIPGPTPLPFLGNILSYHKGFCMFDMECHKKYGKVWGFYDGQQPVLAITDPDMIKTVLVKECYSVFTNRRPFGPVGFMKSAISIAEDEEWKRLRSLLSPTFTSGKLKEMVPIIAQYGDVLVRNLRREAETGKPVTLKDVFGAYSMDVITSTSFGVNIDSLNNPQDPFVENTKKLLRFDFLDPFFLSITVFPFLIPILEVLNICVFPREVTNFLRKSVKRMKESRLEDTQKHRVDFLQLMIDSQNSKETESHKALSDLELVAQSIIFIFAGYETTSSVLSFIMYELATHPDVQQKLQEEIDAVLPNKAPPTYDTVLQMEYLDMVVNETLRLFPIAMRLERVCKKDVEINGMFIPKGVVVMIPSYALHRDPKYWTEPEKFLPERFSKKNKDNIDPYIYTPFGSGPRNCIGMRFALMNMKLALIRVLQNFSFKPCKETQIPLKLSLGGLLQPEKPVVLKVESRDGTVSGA

Legend:
[1] = biological target: human histamine H3 receptors (Homo sapiens, UniProt Q9Y5N1); experiment: H3 binding ([125I]iodoproxyfan, membranes); details: comparative compounds of WO 00/06254
CYP2D6 = CYP2D6 (Homo sapiens, UniProt P10635); experiment: Cytochrome inhibition, fluorometric microtiter plate assay (substrate AMMC); format: biochemical; details: read-out: CYP2D6 (IC50, concentrations for 50% inhibition); comparative compounds of WO 00/06254
CYP3A4 = CYP3A4 (Homo sapiens, UniProt P08684); experiment: Cytochrome inhibition, fluorometric microtiter plate assay (substrate BFC); format: biochemical; details: read-out: CYP3A4 (IC50, concentrations for 50% inhibition); comparative compounds of WO 00/06254

| Ki [1] | IC50 (CYP2D6) | IC50 (CYP3A4) | SMILES |
| --- | --- | --- | --- |
| 14 nM | 1000 nM | > 1000 nM | CC(C)c1ccc(OCCCN2CCCCC2)cc1 |
| 4.5 nM | 1000 nM | 1000 nM | CCCC(=O)c1ccc(OCCCN2CCCCC2)cc1 |
